Literature values, collected in US7628984B2, “Micronutrient formulations for pulmonary and heart health” (Premier Micronutrient Corporation, priority 2005, dated 2009).

How the values were obtained:
[1] = intravenous administration; cited from earlier work
[2] = system: 39,910 male health professionals; conditions: 60 IU vitamin E per day vs less than 7.5 IU per day; cited from earlier work
87,245 healthy nurses = conditions: cited from earlier work

Vitamin E
dose that can cause clotting disorders (reversible by vitamin K) [1]: 2,000 IU/day
lower relative risk of CAD [2]: 36%
lower relative risk of CAD (87,245 healthy nurses; supplements of more than 100 mg per day for at least 2 years): 48%
lower relative risk of a major risk of CAD (87,245 healthy nurses; top fifth vs lowest fifth of vitamin E intake, follow-up 8 years): 34%
